From BindingDB's records for doi:10.1016/j.chembiol.2011.11.010 (Harvard Medical School, 2012)

Amino acid sequences for entries named in this document (tags omitted). A change or cut given only in a name is not applied to a line headed by its entry.
UniProt P53779: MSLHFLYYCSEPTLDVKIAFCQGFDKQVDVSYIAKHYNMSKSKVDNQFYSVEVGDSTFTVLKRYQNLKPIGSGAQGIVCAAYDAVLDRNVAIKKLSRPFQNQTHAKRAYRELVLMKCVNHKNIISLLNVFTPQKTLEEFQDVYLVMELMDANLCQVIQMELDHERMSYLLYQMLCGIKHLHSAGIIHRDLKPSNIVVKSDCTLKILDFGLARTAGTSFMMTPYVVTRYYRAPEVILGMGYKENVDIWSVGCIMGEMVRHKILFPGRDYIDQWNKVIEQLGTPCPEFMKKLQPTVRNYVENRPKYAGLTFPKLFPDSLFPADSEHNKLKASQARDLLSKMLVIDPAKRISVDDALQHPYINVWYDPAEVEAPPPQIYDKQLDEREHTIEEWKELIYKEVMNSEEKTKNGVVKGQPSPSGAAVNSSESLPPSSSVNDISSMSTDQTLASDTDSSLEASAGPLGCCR

Target: Mitogen-activated protein kinase 10 (Homo sapiens, UniProt P53779)
Assay: JNK Kinase Assay

IC50: 0.98 nM
SMILES: Cc1cc(NC(=O)c2cccc(NC(=O)/C=C/CN(C)C)c2)ccc1Nc1nccc(-c2cccnc2)n1 [JNK-IN-8]
